Measurements: US20260382633A1, “KRAS INHIBITORS” (published 2026)

Sequences of proteins named here, by UniProt entry; tags and fusion partners are left off. A line that says so, or that is headed by a name, gives the form on record, which may keep a tag or linker. Residues count along the entry.
UniProt P01116, 1-188 with tags or gaps G12D: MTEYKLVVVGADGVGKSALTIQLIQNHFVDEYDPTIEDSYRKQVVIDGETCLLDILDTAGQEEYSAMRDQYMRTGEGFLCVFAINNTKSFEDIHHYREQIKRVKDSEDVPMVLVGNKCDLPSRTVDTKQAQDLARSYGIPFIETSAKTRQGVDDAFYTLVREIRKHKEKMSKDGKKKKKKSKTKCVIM

What was measured:
[1] = test system: GP2d cells (KRAS G12D); experiment: Cellular Proliferation Assay in GP2d Cells (KRAS G12D), CellTiter-Glo; details: read-out: GP2d IC50, 72 hours
[2] = test system: SW620 cells (KRAS G12V); experiment: Cellular proliferation assay in SW620 cells (KRAS G12V), CTG cell viability; details: read-out: SW620 IC50, 3 days
[3] = biological target: p-ERK in AGS cells (Homo sapiens, UniProt P01116, G12D); experiment: p-ERK Assay in AGS cells; details: read-out: IC50 (p-ERK), 3 h at 37 °C
[4] = Mouse Pharmacokinetic Study; details: single, fed; for AUCinf / AUClast / MRTinf / Vss / T1/2 / Cmax: plasma; for T1/2: terminal half-life

SMILES	IC50 [2] [µM]	IC50 [3] [µM]	IC50 [1] [µM]	also measured
C#Cc1c(F)ccc2cc(O)cc(-c3ncc4c(N5C[C@H]6CC[C@@H](C5)N6)nc(OC[C@@]56CCCN5[C@@H]5C[C@@H]5C6)nc4c3F)c12	–	–	0.019	–
[2H]C([2H])([2H])N(c1nc(OC[C@@]23CC(=C)CN2C[C@H]2C[C@H]23)nc2c(F)c(-c3cc(O)cc4ccc(F)c(C#C)c34)ncc12)[C@@H]1C[C@H]1F	0.163	–	0.347	–
C#Cc1c(F)ccc2cc(O)cc(-c3ncc4c(N5CCC[C@@](C)(O)C5)nc(OC[C@@]56CC(=C)CN5C[C@H]5C[C@H]56)nc4c3F)c12	0.213	–	0.055	–
C#Cc1c(F)ccc2cc(O)cc(-c3ncc4c(N5CCCOCC5)nc(OCC56CCCN5C[C@H]5C[C@H]56)nc4c3F)c12 (some centres unmarked)	0.052	0.013	0.063	AUCinf ([4]; IV 2 mpk): 2460 ng·h/mL; AUClast ([4]; IV 2 mpk): 2460 ng·h/mL; MRTinf ([4]; IV 2 mpk): 0.491 h; Vss ([4]; IV 2 mpk): 0.399 L/kg; T1/2 ([4]; IV 2 mpk): 1.00 h; F % ([4]; PO 5 mpk): 3.5%; AUCinf ([4]; PO 5 mpk): 213 ng·h/mL; AUClast ([4]; PO 5 mpk): 204 ng·h/mL; Cmax ([4]; PO 5 mpk): 350 ng/mL; MRTinf ([4]; PO 5 mpk): 2.17 h; T1/2 ([4]; PO 5 mpk): 2.34 h
C#Cc1c(F)ccc2cc(O)cc(-c3ncc4c(N5C[C@H]6CC[C@@H](C5)N6)nc(OC[C@]56CCCN5C[C@H]5C[C@H]56)nc4c3F)c12 (racemic)	–	–	0.0065	–
C#Cc1c(F)ccc2cc(O)cc(-c3ncc4c(N5CCC=C(F)C5)nc(OC[C@@]56CC7(CC7)CN5C[C@H]5C[C@H]56)nc4c3F)c12	0.403	–	0.391	–
C#Cc1c(F)ccc2cc(O)cc(-c3ncc4c(N(C)[C@@H]5C[C@H]5F)nc(OC[C@@]56CCCN5C[C@H]5C[C@H]56)nc4c3F)c12	0.25	–	0.404	AUCinf ([4]; IV 2 mpk): 6440 ng·h/mL; AUClast ([4]; IV 2 mpk): 6430 ng·h/mL; MRTinf ([4]; IV 2 mpk): 1.01 h; Vss ([4]; IV 2 mpk): 0.313 L/kg; T1/2 ([4]; IV 2 mpk): 1.09 h; F % ([4]; PO 5 mpk): 7.3%; AUCinf ([4]; PO 5 mpk): 1180 ng·h/mL; AUClast ([4]; PO 5 mpk): 1160 ng·h/mL; Cmax ([4]; PO 5 mpk): 600 ng/mL; MRTinf ([4]; PO 5 mpk): 2.01 h; T1/2 ([4]; PO 5 mpk): 1.49 h
C#Cc1c(F)ccc2cc(O)cc(-c3ncc4c(N5CCC[C@@](C)(O)C5)nc(OC[C@@]56CCCN5C[C@H]5C[C@H]56)nc4c3F)c12	0.441	–	0.058	–
C#Cc1c(F)ccc2cc(O)cc(-c3ncc4c(N5CCCC(F)(F)C5)nc(OC[C@@]56CC(=C)CN5C[C@H]5C[C@H]56)nc4c3F)c12	0.529	–	0.115	–
[2H]C([2H])([2H])N(c1nc(OC[C@@]23CC4(CC4)CN2C[C@H]2C[C@H]23)nc2c(F)c(-c3cc(O)cc4ccc(F)c(C#C)c34)ncc12)[C@@H]1C[C@H]1F	0.464	–	0.472	–
C#Cc1c(F)ccc2cc(O)cc(-c3ncc4c(N5CCCOCC5)nc(OC[C@@]56CC(=C)CN5C[C@H]5C[C@H]56)nc4c3F)c12	0.038	–	0.074	–
C#Cc1c(F)ccc2cc(O)cc(-c3ncc4c(N5CCCCCC5)nc(OCC56CCCN5C[C@H]5C[C@H]56)nc4c3F)c12 (some centres unmarked)	0.408	0.099	0.264	–
Oc1cc(Cl)c(C(F)(F)F)c(-c2ncc3c(N4C[C@H]5CC[C@@H](C4)N5)nc(OC[C@]45CCCN4[C@@H]4C[C@@H]4C5)nc3c2F)c1	–	0.772	1.22	–
C#Cc1c(F)ccc2cc(O)cc(-c3ncc4c(N5CCCOCC5)nc(OC[C@@]56CC7(CC7)CN5C[C@H]5C[C@H]56)nc4c3F)c12	0.191	–	0.149	–
Nc1cc(Cl)c(C(F)(F)F)c(-c2ncc3c(N4CC5CCC(C4)N5)nc(OC[C@]45CCCN4[C@@H]4C[C@@H]4C5)nc3c2F)c1	–	0.107	0.112	–
C#Cc1c(F)ccc2cc(O)cc(-c3ncc4c(N5CCC=C(F)C5)nc(OC[C@@]56CC(=C)CN5C[C@H]5C[C@H]56)nc4c3F)c12	0.192	–	0.085	–
C#Cc1c(F)ccc2cc(O)cc(-c3ncc4c(N5CC6CCC(C5)N6)nc(OC[C@]56CCCN5C[C@@H]5C[C@@H]56)nc4c3F)c12	–	–	0.0037	–
C#Cc1c(F)ccc2cc(O)cc(-c3ncc4c(N5C[C@H]6CC[C@@H](C5)N6)nc(OC[C@]56CCCN5[C@@H]5C[C@@H]5C6)nc4c3F)c12	–	–	0.013	–
C#Cc1c(F)ccc2cc(O)cc(-c3ncc4c(N(C)C5CC5)nc(OC[C@@]56CCCN5C[C@H]5C[C@H]56)nc4c3F)c12	0.995	–	0.932	–
C#Cc1c(F)ccc2cc(O)cc(-c3ncc4c(N(C)[C@@H]5C[C@H]5F)nc(OC[C@@]56CC(=C)CN5C[C@H]5C[C@H]56)nc4c3F)c12	0.177	0.213	0.361	–
C#Cc1c(F)ccc2cc(O)cc(-c3ncc4c(N5CCC=C(F)C5)nc(OC[C@@]56CCCN5C[C@H]5C[C@H]56)nc4c3F)c12	0.238	–	0.023	AUCinf ([4]; IV 2 mpk): 6960 ng·h/mL; AUClast ([4]; IV 2 mpk): 6950 ng·h/mL; MRTinf ([4]; IV 2 mpk): 0.700 h; Vss ([4]; IV 2 mpk): 0.201 L/kg; T1/2 ([4]; IV 2 mpk): 0.973 h; F % ([4]; PO 5 mpk): 1.7%; AUCinf ([4]; PO 5 mpk): 290 ng·h/mL; AUClast ([4]; PO 5 mpk): 280 ng·h/mL; Cmax ([4]; PO 5 mpk): 280 ng/mL; MRTinf ([4]; PO 5 mpk): 2.17 h; T1/2 ([4]; PO 5 mpk): 2.16 h
C#Cc1c(F)ccc2cc(O)cc(-c3ncc4c(N5CC6CCC(C5)N6)nc(OC[C@@]56CCCN5[C@H]5C[C@H]5C6)nc4c3F)c12	–	–	0.017	–
C#Cc1c(F)ccc2cc(O)cc(-c3ncc4c(N5CC6CCC(C5)N6)nc(OC[C@]56CCCN5[C@H]5C[C@H]5C6)nc4c3F)c12	–	–	0.151	–
[2H]C([2H])([2H])N(c1nc(OC[C@@]23CCCN2C[C@H]2C[C@H]23)nc2c(F)c(-c3cc(O)cc4ccc(F)c(C#C)c34)ncc12)[C@@H]1C[C@H]1F	0.301	–	0.531	AUCinf ([4]; IV 2 mpk): 8270 ng·h/mL; AUClast ([4]; IV 2 mpk): 8250 ng·h/mL; MRTinf ([4]; IV 2 mpk): 1.19 h; Vss ([4]; IV 2 mpk): 0.289 L/kg; T1/2 ([4]; IV 2 mpk): 1.11 h; F % ([4]; PO 5 mpk): 7.4%; AUCinf ([4]; PO 5 mpk): 1530 ng·h/mL; AUClast ([4]; PO 5 mpk): 1520 ng·h/mL; Cmax ([4]; PO 5 mpk): 958 ng/mL; MRTinf ([4]; PO 5 mpk): 2.12 h; T1/2 ([4]; PO 5 mpk): 1.47 h
C#Cc1c(F)ccc2cc(O)cc(-c3ncc4c(N5CCOCC6CC65)nc(OC[C@@]56CCCN5C[C@H]5C[C@H]56)nc4c3F)c12 (some centres unmarked)	0.265	–	0.844	–
C#Cc1c(F)ccc2cc(O)cc(-c3ncc4c(N5CC6CCC(C5)N6)nc(OC[C@@]56CCCN5C[C@H]5C[C@H]56)nc4c3F)c12	–	–	0.0065	AUCinf ([4]; IV 2 mpk): 1190 ng·h/mL; AUClast ([4]; IV 2 mpk): 1130 ng·h/mL; MRTinf ([4]; IV 2 mpk): 3.90 h; Vss ([4]; IV 2 mpk): 6.57 L/kg; T1/2 ([4]; IV 2 mpk): 10.8 h; F % ([4]; PO 10 mpk): 0.8%; AUCinf ([4]; PO 10 mpk): 46.9 ng·h/mL; AUClast ([4]; PO 10 mpk): 43 ng·h/mL; Cmax ([4]; PO 10 mpk): 15.8 ng/mL; MRTinf ([4]; PO 10 mpk): 3.08 h; T1/2 ([4]; PO 10 mpk): 2.44 h

More lines, main results first:

IC50 [2] [µM]	IC50 [3] [µM]	SMILES	IC50 [1] [µM]	also measured
3.07	–	C#Cc1c(F)ccc2cc(O)cc(-c3ncc4c(N5CCC6CC6C5)nc(OC[C@@]56CCCN5C[C@H]5C[C@H]56)nc4c3F)c12 (some centres unmarked)	0.893	–
–	0.146	C#Cc1c(F)ccc2cc(O)cc(-c3ncc4c(N5CC6CCC(C5)N6)nc(OC[C@@]56CC(C)CN5C[C@H]5C[C@H]56)nc4c3F)c12 (single isomer, unassigned)	0.118	–
–	0.031	C#Cc1c(F)ccc2cc(O)cc(-c3ncc4c(N5CC6CCC(C5)N6)nc(OC[C@]56CC(=C)CN5C[C@H]5C[C@H]56)nc4c3F)c12 (single isomer, unassigned)	0.031	–
–	0.067	C#Cc1c(F)ccc2cc(N)cc(-c3ncc4c(N5C[C@H]6CC[C@@H](C5)N6)nc(OC[C@]56CCCN5C[C@H]5C[C@H]56)nc4c3F)c12 (racemic)	0.02	–
–	0.002	C#Cc1c(F)ccc2cc(O)cc(-c3ncc4c(N5CC6CCC(C5)N6)nc(OC[C@@]56CC7(CC7)CN5C[C@H]5C[C@H]56)nc4c3F)c12 (single isomer, unassigned)	0.008	–
–	0.06	C#Cc1c(F)ccc2cc(O)cc(-c3ncc4c(N5CC6CCC(C5)N6)nc(OC[C@]56CC7(CC7)CN5C[C@H]5C[C@H]56)nc4c3F)c12	0.16	–
–	0.171	C#Cc1c(F)ccc2cc(N)cc(-c3ncc4c(N5CC6CCC(C5)N6)nc(OC[C@]56CCCN5[C@@H]5C[C@@H]5C6)nc4c3F)c12	0.2	–
–	0.005	C#Cc1c(F)ccc2cc(O)cc(-c3ncc4c(N5CC6CCC(C5)N6)nc(OC[C@@]56CC(=C)CN5C[C@H]5C[C@H]56)nc4c3F)c12 (single isomer, unassigned)	0.006	–
–	0.011	C#Cc1c(F)ccc2cc(N)cc(-c3ncc4c(N5CC6CCC(C5)N6)nc(OC[C@@]56CCCN5C[C@H]5C[C@H]56)nc4c3F)c12	0.025	–
–	0.033	C#Cc1c(F)ccc2cc(O)cc(-c3ncc4c(N5CC6CCC(C5)N6)nc(OC[C@]56CC(=C)CN5[C@@H]5C[C@@H]5C6)nc4c3F)c12	0.043	–
–	0.049	C#Cc1c(F)ccc2cc(O)cc(-c3ncc4c(N5CC6CCC(C5)N6)nc(OC[C@@]56CCCN5C[C@H]5C[C@H]56)nc4c3OC)c12	0.16	–
